Results from PubChem BioAssay AID686992 (Broad Institute, 2013).
The list shows a part of the results, in another mix than the full data. Some tests of the compounds listed are not included; inactive here does not mean inactive elsewhere. The source made the active and inactive calls.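 Rule for the calls: active = mean E-selectin-positive cell signal at least 10% of the positive control, reached in at least 60% of replicates, without over 20% cell loss; inconclusive = no rule given, readout overlaps actives, possibly toxicity-flagged; inactive = the rest, including those meeting only one limit.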

The chains behind the UniProt entries cited, without tags or fusion partners.
UniProt P16581, whole entry: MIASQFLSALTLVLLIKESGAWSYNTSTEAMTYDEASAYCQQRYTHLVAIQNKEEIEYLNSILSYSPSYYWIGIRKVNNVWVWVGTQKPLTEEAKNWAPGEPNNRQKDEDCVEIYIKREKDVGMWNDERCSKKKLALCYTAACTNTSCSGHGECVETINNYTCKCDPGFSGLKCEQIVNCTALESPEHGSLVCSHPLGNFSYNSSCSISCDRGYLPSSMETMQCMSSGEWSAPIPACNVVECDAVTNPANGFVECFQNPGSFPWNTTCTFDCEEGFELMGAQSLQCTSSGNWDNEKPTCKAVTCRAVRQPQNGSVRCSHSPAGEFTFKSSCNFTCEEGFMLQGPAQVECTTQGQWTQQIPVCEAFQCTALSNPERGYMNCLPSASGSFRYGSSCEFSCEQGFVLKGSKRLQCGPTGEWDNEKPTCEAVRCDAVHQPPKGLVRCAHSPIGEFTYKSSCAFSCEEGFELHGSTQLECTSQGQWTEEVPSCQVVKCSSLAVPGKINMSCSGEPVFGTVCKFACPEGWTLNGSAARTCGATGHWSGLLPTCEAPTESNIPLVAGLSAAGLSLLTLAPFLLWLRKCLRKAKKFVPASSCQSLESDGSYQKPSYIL

Each compound was assayed against E-selectin (Homo sapiens) (UniProt P16581) (assay: inducers of endothelial E-selectin expression – imaging, HUVEC, immunofluorescence imaging, single point, primary screen (AID 686992;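 note: signal is the percent of cells scored E-selectin positive by PE staining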)). Details: at 7.58 µM, hits give high values, normalized: neutral wells 0, TNF-alpha wells 100.
Method in brief: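 Assay system: HUVEC primary endothelial cells. Input: 3,000 HUVEC seeded per well. Doses: one compound dose added by pin transfer. Read-out basis: % PE-positive cells. Benchmarks: TNF-alpha high, DMSO low. Detection: immunofluorescence imaging. Buffer or medium: EGM-2, gelatin.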
`Cc1ccc(C(=O)NCC2(N3CCCCC3)CCCCC2)cc1` was tested, and the activation was inactive: -0.076%. In the case of `CCN(CC)CC(C)C(C)OC(=O)C(O)(c1ccccc1)c1ccccc1` (stereo not drawn), the activation is reported as inactive: 0.521%. For `COc1cc(SC)ccc1C(=O)NCC1(N(C)C)CCCCC1`, the activation was inactive: 20.4%. `O=C(NCC1(N2CCCCC2)CCCCC1)c1cc([N+](=O)[O-])ccc1Cl` was tested, and the activation was inactive: -0.0225%. In the case of `CN(C)C1CCCC1OC(=O)C(O)(c1ccccc1)c1ccccc1` (stereo not drawn), the activation is reported as inactive: -1.96%. For `CN(C)c1ccc(C(=O)NCC2(N(C)C)CCCCC2)cc1`, the activation was inactive: -0.0345%. `COc1cccc(C(=O)NCC2(N3CCCCC3)CCCCC2)c1` was tested, and the activation was inactive: 6%. For `COc1cc(C(=O)NCC2(N(C)C)CCCCC2)c([N+](=O)[O-])cc1OC`, the activation was inactive: 0.267%. In the case of `CN(C)C1(CNC(=O)c2ccc(Br)cc2)CCCCC1`, the activation is reported as inactive: 0.164%. With `CC(C)Oc1ccc(C(=O)NCC2(N(C)C)CCCCC2)cc1` the activation was inactive: 2.37%. `O=C(OCCN1CCCC1)C(O)(c1ccccc1)c1ccccc1` was tested, and the activation was inactive: -0.101%. For `C=C(C)C#CC(O)(C(=O)OC1CCN(C)CC1)c1ccccc1` (stereo not drawn), the activation was inactive: 0.089%. For `COc1ccc(Br)c(C(=O)NCC2(N3CCCCC3)CCCCC2)c1`, the activation was inactive: 3.56%.
